Literature values in patent US20190060340A1, “NOVEL AMINOGLYCOSIDES AND USES THEREOF IN THE TREATMENT OF GENETIC DISORDERS” (Technion Research & Development Foundation Limited, priority 2007, published 2019).

Conditions: available toxicity data on aminoglycosides; unit inferred; cited from earlier work

neomycin
LD50: 24 mg/kg
